By UniProt entry, the sequences of proteins in these tests, tags left out.
UniProt P35372, whole entry, looked up: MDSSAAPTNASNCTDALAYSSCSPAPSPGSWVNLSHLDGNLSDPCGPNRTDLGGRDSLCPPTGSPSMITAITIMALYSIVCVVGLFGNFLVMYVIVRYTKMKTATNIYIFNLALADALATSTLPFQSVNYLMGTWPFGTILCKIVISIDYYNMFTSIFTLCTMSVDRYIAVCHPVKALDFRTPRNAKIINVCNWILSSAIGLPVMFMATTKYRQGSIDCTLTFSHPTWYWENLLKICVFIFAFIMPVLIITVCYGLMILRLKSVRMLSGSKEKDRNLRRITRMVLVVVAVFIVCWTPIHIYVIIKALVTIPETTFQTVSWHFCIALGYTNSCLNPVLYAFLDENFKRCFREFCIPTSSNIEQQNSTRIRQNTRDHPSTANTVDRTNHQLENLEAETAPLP

According to paper PMC11085448 (Molecules, 2024):

Target: human μ-opioid receptor (OPRM1) (Homo sapiens, UniProt P35372)
Assay: forskolin-induced cAMP accumulation assay, MOR antagonist
Settings: CHO-K1 human MOR, versus EC90 of fentanyl; for IC50: read-out: MOR Antagonist IC50 ± SEM; for MOR Antagonist %Imax ± SEM: Imax normalized to naltrexone

SMILES	IC50 [nM]	MOR Antagonist %Imax ± SEM
CN[C@@H]1[C@H]2CCC[C@]1(c1cccc(O)c1)CCN2CCc1ccccc1 [1R,5R,9S-10, 3-((1R,5R,9S)-9-(Methylamino)-2-phenethyl-2-azabicyclo[3.3.1]nonan-5-yl)phenol]	> 10000	–
N[C@H]1[C@@H]2CCC[C@@]1(c1cccc(O)c1)CCN2CCc1ccccc1 [1S,5S,9R-3, 3-((1S,5S,9R)-9-Amino-2-phenethyl-2-azabicyclo[3.3.1]nonan-5-yl)phenol]	709	114.8 ± 5.5%
N#CC[C@@H]1[C@H]2CCC[C@]1(c1cccc(O)c1)CCN2CCc1ccccc1 [1R,5S,9S-41, 2-((1R,5S,9S)-5-(3-Hydroxyphenyl)-2-phenethyl-2-azabicyclo[3.3.1]nonan-9-yl)acetonitrile]	318	124.7 ± 13.9%
CN[C@H]1[C@@H]2CCC[C@@]1(c1cccc(O)c1)CCN2CCc1ccccc1 [1S,5S,9R-8, 3-((1S,5S,9R)-9-(Methylamino)-2-phenethyl-2-azabicyclo[3.3.1]nonan-5-yl)phenol]	178	136% and 136.5 ± 20.1%

Where “and” joins values, the source holds several entries; their conditions need not be identical. Identical values can stand only once.
